Antibody variant affinities, Ab-14 light chain, assay B

Values reported by Li et al. 2023, doi:10.1038/s41467-023-39022-2 (FLAb copy).

Target: peptide PDVDLGDISGINAS, taken from heptad repeat 2 (HR2) of SARS-CoV-2 spike.

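These sequences belong to a second round, designed from the earlier measurements on random variants of the parent. Several design methods are mixed in this list. The assay is AlphaSeq: two haploid yeast populations carry antibody and antigen on their surface. After mating in shaken culture at 30 °C for 16 h, diploids were selected and their barcode pairs sequenced. Scores were corrected for input abundance and mapped to Kd with protein pairs of known affinity run in the same pool. Each pool was mated in six replicate cultures.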

The variants keep the heavy chain, the linker and the frameworks of Ab-14 (scFv order VH, the linker GGGGSGGGGSGGGGS, VL).
VH: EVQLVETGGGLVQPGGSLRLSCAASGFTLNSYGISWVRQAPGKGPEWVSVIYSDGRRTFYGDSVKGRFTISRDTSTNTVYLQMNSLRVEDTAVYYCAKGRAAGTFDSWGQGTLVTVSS
VL: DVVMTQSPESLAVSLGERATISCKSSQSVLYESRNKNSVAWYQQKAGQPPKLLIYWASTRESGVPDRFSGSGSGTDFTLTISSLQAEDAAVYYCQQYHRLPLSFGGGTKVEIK

Variants are written as CDR1, CDR2 and CDR3 of the light chain (limits as in the source). Parent: KSSQSVLYESRNKNSVA, WASTRES, QQYHRLPLS. Values are apparent Kd, the geometric mean of the replicates that gave a signal; lower means stronger binding. A pair that was not seen in any replicate is written "nd"; this usually means weak binding, but a binder can also be missed. A sequence measured in both rounds can read differently, since the two assays cover different ranges. Nonspecific signal, from three strains lacking the peptide, appeared in 4% of pairings of all light chain designs, centred on 430 nM (5% of these signals below 38 nM); values are not corrected for it. Also given: how often the same scFv was detected with the empty control strains. Of ten entries with the parent sequence, four were seen in most replicates (averages 2.2 nM to 240 nM), three in one and three in none, so single entries are noisy. The authors' rule: three or more of the six replicates give a measured affinity, fewer mean a poor binder.

{"CDR-L1": "TISGVMQTSSHIKNNVA", "CDR-L2": "EVSTRLD", "CDR-L3": "QQYFRLPLE", "apparent Kd": "2.7 nM", "seen in": "6 of 6", "signal with controls": "0 of 18"}
{"CDR-L1": "KLSQSVDYEDRNKNSVA", "CDR-L2": "NASTRES", "CDR-L3": "QQYHRLPLS", "apparent Kd": "960 pM", "seen in": "6 of 6", "signal with controls": "2 of 18"}
{"CDR-L1": "MISQVMNTLTRNGNNVA", "CDR-L2": "DLAEREQ", "CDR-L3": "QQYFRLPLS", "apparent Kd": "11 nM", "seen in": "6 of 6", "signal with controls": "1 of 18"}
{"CDR-L1": "MISQIYNMGQFAINSVA", "CDR-L2": "QASVRNE", "CDR-L3": "QQYDRLPLM", "apparent Kd": "56 nM", "seen in": "6 of 6", "signal with controls": "1 of 18"}
{"CDR-L1": "KWSQSWLMESMNSNSVA", "CDR-L2": "NASQRES", "CDR-L3": "QQYHRLPLS", "apparent Kd": "11 nM", "seen in": "6 of 6", "signal with controls": "0 of 18"}
{"CDR-L1": "KQSQSVTYESSNKNPVA", "CDR-L2": "WAYTRES", "CDR-L3": "QQYARLPLS", "apparent Kd": "870 nM", "seen in": "2 of 6", "signal with controls": "0 of 18"}
{"CDR-L1": "KSSQNVLYESRNKNSVA", "CDR-L2": "WASTRES", "CDR-L3": "QQYSRLPLS", "apparent Kd": "20 nM", "seen in": "6 of 6", "signal with controls": "0 of 18"}
{"CDR-L1": "SLTSHEEEKEGAEASVA", "CDR-L2": "EAVMLES", "CDR-L3": "QQYHRLPLM", "apparent Kd": "34 nM", "seen in": "6 of 6", "signal with controls": "0 of 18"}
{"CDR-L1": "KSSQSVLTESRNKNSVA", "CDR-L2": "WASTRES", "CDR-L3": "QQYHRLPLS", "apparent Kd": "81 nM", "seen in": "5 of 6", "signal with controls": "1 of 18"}
{"CDR-L1": "KSSQSVLEESRNKNSVA", "CDR-L2": "WASTRES", "CDR-L3": "QQYLRLPLS", "apparent Kd": "56 nM", "seen in": "1 of 6", "signal with controls": "0 of 18"}
{"CDR-L1": "KLSATYRYESQNKNSIA", "CDR-L2": "EMSTRED", "CDR-L3": "QCYHRLPLS", "apparent Kd": "nd", "seen in": "0 of 6", "signal with controls": "0 of 18"}
{"CDR-L1": "KSSQSKLYESRNKNSVA", "CDR-L2": "WISTRES", "CDR-L3": "QQVHRLPIY", "apparent Kd": "160 nM", "seen in": "1 of 6", "signal with controls": "0 of 18"}
{"CDR-L1": "KISSMVKVGMTHQNSIA", "CDR-L2": "EEQTRAK", "CDR-L3": "QQYHRLPLS", "apparent Kd": "6.9 nM", "seen in": "6 of 6", "signal with controls": "1 of 18"}
{"CDR-L1": "KLSQSHLYESRNKNSVA", "CDR-L2": "EASTRES", "CDR-L3": "QDYHRLPLS", "apparent Kd": "1.2 nM", "seen in": "6 of 6", "signal with controls": "0 of 18"}
{"CDR-L1": "ALSDWEWAGEENINAIA", "CDR-L2": "DRSALEW", "CDR-L3": "QQYGRLPLS", "apparent Kd": "29 nM", "seen in": "6 of 6", "signal with controls": "0 of 18"}
{"CDR-L1": "IAVQSWLYESRNKNSVA", "CDR-L2": "GASTRES", "CDR-L3": "QQYHRLPLI", "apparent Kd": "14 nM", "seen in": "6 of 6", "signal with controls": "2 of 18"}
{"CDR-L1": "KVSQSVMMLTRNKNSVA", "CDR-L2": "DNSTSGS", "CDR-L3": "QQYHRLPLS", "apparent Kd": "110 nM", "seen in": "6 of 6", "signal with controls": "1 of 18"}
{"CDR-L1": "KGSQSVLYESRYKNSVA", "CDR-L2": "WASTRED", "CDR-L3": "QQYHRLPLS", "apparent Kd": "180 nM", "seen in": "1 of 6", "signal with controls": "0 of 18"}
{"CDR-L1": "KVSQEVDYESRNKNSVA", "CDR-L2": "DASTRES", "CDR-L3": "QQYHRLPLS", "apparent Kd": "1.5 nM", "seen in": "6 of 6", "signal with controls": "1 of 18"}
{"CDR-L1": "ILSDSVLTLSRNKNSVA", "CDR-L2": "DNSTRES", "CDR-L3": "QQYDRLPLS", "apparent Kd": "690 nM", "seen in": "4 of 6", "signal with controls": "1 of 18"}
{"CDR-L1": "SIQNLGMVNSVWKNSIA", "CDR-L2": "DVNILED", "CDR-L3": "QQYYRLPLL", "apparent Kd": "730 pM", "seen in": "6 of 6", "signal with controls": "1 of 18"}
{"CDR-L1": "KVEQLVDPKDRNSNSVA", "CDR-L2": "NASTRES", "CDR-L3": "QQYHRLPLS", "apparent Kd": "1.0 nM", "seen in": "6 of 6", "signal with controls": "4 of 18"}
{"CDR-L1": "NMRLNEGEIAMHGYAIA", "CDR-L2": "GVDLRAA", "CDR-L3": "QQYARLPLH", "apparent Kd": "6.2 nM", "seen in": "6 of 6", "signal with controls": "0 of 18"}
{"CDR-L1": "KFEQSQLYESRNKNSVA", "CDR-L2": "NASTRMS", "CDR-L3": "QQYHRLPLS", "apparent Kd": "2.6 nM", "seen in": "6 of 6", "signal with controls": "1 of 18"}
{"CDR-L1": "KMSQSVLMEHRNKNSVA", "CDR-L2": "DASLRES", "CDR-L3": "QQYHRLPLS", "apparent Kd": "700 pM", "seen in": "6 of 6", "signal with controls": "0 of 18"}
{"CDR-L1": "TISQSVLMTGLNRNSVA", "CDR-L2": "QAEERVE", "CDR-L3": "QQYHRLPLS", "apparent Kd": "3.6 nM", "seen in": "6 of 6", "signal with controls": "0 of 18"}
{"CDR-L1": "HDSPSVLYESRNKNSVA", "CDR-L2": "NASTRES", "CDR-L3": "QQYHRLPLS", "apparent Kd": "540 pM", "seen in": "6 of 6", "signal with controls": "0 of 18"}
{"CDR-L1": "KFPQSYLYESRNKNSVA", "CDR-L2": "NASTRES", "CDR-L3": "QQYHRLPLS", "apparent Kd": "1.0 nM", "seen in": "6 of 6", "signal with controls": "4 of 18"}
{"CDR-L1": "KSLWSVLYESNNKNSVA", "CDR-L2": "HASTRMD", "CDR-L3": "QQYHRLPLS", "apparent Kd": "4.9 nM", "seen in": "6 of 6", "signal with controls": "2 of 18"}
{"CDR-L1": "MISQLMNMGQFAINSVA", "CDR-L2": "QAQIRNQ", "CDR-L3": "QQYDRLPLA", "apparent Kd": "2.8 nM", "seen in": "1 of 6", "signal with controls": "0 of 18"}
{"CDR-L1": "MISDLTMYGSRNKNSIA", "CDR-L2": "DSSTRGS", "CDR-L3": "QQYHRLPLS", "apparent Kd": "390 pM", "seen in": "6 of 6", "signal with controls": "0 of 18"}

The 3 strongest on average among those seen in every replicate, once more:

CDR-L1	CDR-L2	CDR-L3	apparent Kd	seen in	signal with controls
MISDLTMYGSRNKNSIA	DSSTRGS	QQYHRLPLS	390 pM	6 of 6	0 of 18
HDSPSVLYESRNKNSVA	NASTRES	QQYHRLPLS	540 pM	6 of 6	0 of 18
KMSQSVLMEHRNKNSVA	DASLRES	QQYHRLPLS	700 pM	6 of 6	0 of 18